Reference: ChEMBL document CHEMBL1150324, “Support vector machines classification of hERG liabilities based on atom types” (Bioorg Med Chem, 2008)

By UniProt entry, the sequences of proteins in these tests, tags left out. Where a name states a change or a piece, a line headed by the entry shows the natural chain unless it says otherwise.
UniProt Q12809: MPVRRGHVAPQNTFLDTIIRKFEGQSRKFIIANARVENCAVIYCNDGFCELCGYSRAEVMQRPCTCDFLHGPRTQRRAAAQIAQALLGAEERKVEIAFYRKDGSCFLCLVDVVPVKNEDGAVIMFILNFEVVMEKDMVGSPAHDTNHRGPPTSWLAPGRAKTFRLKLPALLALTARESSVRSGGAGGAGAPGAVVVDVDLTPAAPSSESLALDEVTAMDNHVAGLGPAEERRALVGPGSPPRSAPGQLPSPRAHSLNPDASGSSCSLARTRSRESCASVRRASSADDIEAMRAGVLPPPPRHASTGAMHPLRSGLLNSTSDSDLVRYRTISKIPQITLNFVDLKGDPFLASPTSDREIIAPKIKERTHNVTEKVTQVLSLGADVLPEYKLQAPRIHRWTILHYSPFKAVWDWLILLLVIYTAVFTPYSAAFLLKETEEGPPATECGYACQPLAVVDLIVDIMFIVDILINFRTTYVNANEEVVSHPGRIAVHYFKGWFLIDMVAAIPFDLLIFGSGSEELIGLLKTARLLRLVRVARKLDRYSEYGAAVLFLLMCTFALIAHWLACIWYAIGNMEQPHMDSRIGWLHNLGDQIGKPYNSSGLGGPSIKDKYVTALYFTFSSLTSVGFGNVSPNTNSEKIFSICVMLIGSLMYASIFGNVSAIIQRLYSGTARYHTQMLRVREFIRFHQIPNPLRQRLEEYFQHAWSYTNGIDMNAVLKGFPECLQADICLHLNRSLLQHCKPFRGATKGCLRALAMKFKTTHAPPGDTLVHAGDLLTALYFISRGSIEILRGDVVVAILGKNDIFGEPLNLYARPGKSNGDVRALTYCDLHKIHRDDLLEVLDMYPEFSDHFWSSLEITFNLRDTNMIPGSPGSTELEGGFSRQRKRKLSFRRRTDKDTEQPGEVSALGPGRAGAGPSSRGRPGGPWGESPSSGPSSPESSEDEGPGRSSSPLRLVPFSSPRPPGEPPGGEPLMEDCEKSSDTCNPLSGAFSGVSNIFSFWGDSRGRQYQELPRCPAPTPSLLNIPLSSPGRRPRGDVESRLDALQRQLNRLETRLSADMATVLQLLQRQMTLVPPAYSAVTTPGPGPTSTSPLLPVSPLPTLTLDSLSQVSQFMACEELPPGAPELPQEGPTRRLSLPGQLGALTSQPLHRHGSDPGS

How the values were obtained:
hERG (KCNH2) = hERG (KCNH2) (Homo sapiens, UniProt Q12809); test: in vitro
[1] = molecular target: Voltage-gated inwardly rectifying potassium channel KCNH2 (Homo sapiens, UniProt Q12809)

Structure (SMILES)	IC50 (hERG (KCNH2))	IC50 [1]
CN1CCN(CCCCN2C(=O)CN(/N=C/c3ccc(-c4ccc(Cl)cc4)o3)C2=O)CC1 [AZIMILIDE]	1410 nM	–
CC(C)COCC(CN(Cc1ccccc1)c1ccccc1)N1CCCC1 (centres undefined) [BEPRIDIL]	550 nM	–
C1CCC(C(CC2CCCCN2)C2CCCCC2)CC1 (centres undefined) [PERHEXILINE]	–	7760 nM
CNCCCN1c2ccccc2CCc2ccccc21 [DESIPRAMINE]	–	1380 nM
